The target in the assay is T1, procaspase-9 (Homo sapiens, UniProt P55211).
T1 construct: using neutrophil cytosol containing all the apoptosome components, i.e., procaspase-9; endogenous in cells; host or cells: neutrophil cytosol (primary neutrophils)
T1 sequence (P55211 1-416): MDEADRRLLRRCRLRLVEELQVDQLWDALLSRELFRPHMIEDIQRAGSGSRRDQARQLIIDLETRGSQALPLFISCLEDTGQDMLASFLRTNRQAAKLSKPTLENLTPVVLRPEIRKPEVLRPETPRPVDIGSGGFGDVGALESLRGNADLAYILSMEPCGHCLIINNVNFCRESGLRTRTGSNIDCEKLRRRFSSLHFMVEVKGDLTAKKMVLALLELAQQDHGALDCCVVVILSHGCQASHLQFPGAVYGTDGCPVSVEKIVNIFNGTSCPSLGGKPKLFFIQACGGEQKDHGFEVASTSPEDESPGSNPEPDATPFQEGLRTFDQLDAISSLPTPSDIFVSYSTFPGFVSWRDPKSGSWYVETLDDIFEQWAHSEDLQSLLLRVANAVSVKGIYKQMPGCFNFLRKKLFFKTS
The assay is described as follows: In vitro procaspase-9 activation assay using neutrophil cytosol, cytochrome c and dATP. It is filed as biochemical. Also noted: dose or concentration left out as unconfirmed. How it is done: That hypothesis was tested by evaluating procaspase-9 cleavage in an in vitro assay, using neutrophil cytosol containing all the apoptosome components, i.e., procaspase-9 and apoptotic protease-activating factor-1 (Apaf-1) as previously described (McStay et al. 2008; Cell Death Differ. 15:322-331). Addition of exogenous purified cytochrome c and dATP triggered procaspase-9 cleavage (37 kDa) in a time-dependent manner, as evidenced by western blot analysis of caspase-9 (FIG. 7E). […] Caspase-9 activation was next investigated in PL985 cells overexpressing PCNA or the interdomain connecting loop mutant. After 6 days of DMF exposure, caspase-9 activity was elevated unlike undifferentiated cells. This caspase-9 activity might correspond to physiological apoptosis of aged neutrophils.

For the substance “purified PCNA: recombinant human PCNA produced in E. coli and purified”, the “Procaspase-9 cleavage / activation” value is “procaspase-9 cleavage was delayed”.

Values taken from patent US20130059773A1, “COMPOUNDS FOR THE TREATMENT OF INFLAMMATION AND NEUTROPENIA” (priority 2010, published 2013).
